Test results reported in patent US8575156B2, “Cyclic inhibitors of 11β-hydroxysteroid dehydrogenase 1” (Vitae Pharmaceuticals, Inc., priority 2007, dated 2013).

Protein sequences, listed by entry. Tags and fused reporters are not part of them.
UniProt P28845, whole entry: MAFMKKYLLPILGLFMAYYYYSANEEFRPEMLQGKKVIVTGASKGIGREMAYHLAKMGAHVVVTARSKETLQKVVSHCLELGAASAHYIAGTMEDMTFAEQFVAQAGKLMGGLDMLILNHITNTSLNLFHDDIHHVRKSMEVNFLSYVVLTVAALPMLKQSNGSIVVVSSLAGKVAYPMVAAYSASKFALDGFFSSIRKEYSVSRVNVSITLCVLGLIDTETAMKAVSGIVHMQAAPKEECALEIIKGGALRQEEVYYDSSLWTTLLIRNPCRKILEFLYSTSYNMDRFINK

Biological target: 11β-HSD1 (Homo sapiens, UniProt P28845)
Conditions: for Average % inhibition at 100 nM: Biological Test Example 1, 100 nM compound, 0.1 µM

Row | IC50 [µM] | Average % inhibition at 100 nM [%] | SMILES
1 | < 0.1 | 69.0 | COc1ccc([C@H](C)N2CCC(CCO)(c3ccccc3)OC2=O)cc1 (single isomer, unassigned) [EXAMPLE 191 Isomer 2]
2 | < 0.1 | 98.9 | COc1ccc([C@H](C)N2CCC(CCO)(c3ccccc3)OC2=O)cc1 (single isomer, unassigned) [EXAMPLE 191 Isomer 1]
